p-CIP stab down = p/CIP protein destabilization; 290,000 compounds, 0.01% hits; F442A p/CIP-EGFP cells, EGFP fluorescence, 16 h; decrease of EGFP signal, % at 10 µM; Q05BA5;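 active = EGFP signal decrease of at least 30% at 10 µM or well 3 SD below plate mean, unless failing retest; inactive = the rest, including hits failing retest or dose response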
PKA-R1A act = PKA-R1A complex activation | P00514+P68181 | PKA-R1A dissociation, Cy5-IP20 fluorescence polarization; scaled: DMSO 0%, 113 µM cGMP 100% | activation, % at 11.4 µM | 340,000 compounds, 0.083% hits | AID 504707;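 active = percent activation above the mean of all tested compounds plus 3 SD, cut at about 19% in these data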;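 note: higher means more PKAc released from R1A so a rise in polarization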
PKA-R2B activ = activates the human PKA-R2B holoenzyme complex. 340,000 compounds, 0.079% hits. P22694+P31323. activation, % at 11.4 µM. AID 504700. PKA-R2B holoenzyme dissociation, Cy5-IP20 fluorescence polarization; R2B truncated from residue 108, S112A mutant; 0% DMSO only, 100% 113 µM cGMP;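 active = activation above a cutoff set at the mean over all compounds plus 3 SD, cut at about 18% in these data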;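 note: higher means more holoenzyme dissociation and a rise in polarization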
ABCB6 inh 2 = inhibitors of human ABC transporter ABCB6; fluorescence ratio to DMSO, % at 10 µM; K562-ABCB6 porphyrin accumulation, flow cytometry, 1 h; hits give low values; 360,000 compounds, 0.19% hits; Q9NP58;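 active = fluorescence ratio to DMSO below 75%, the collection mean minus 3 SD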;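 note: signal is porphyrin accumulated inside mitochondria; 100% equals median channel fluorescence of DMSO control wells; lower ratio means ABCB6 inhibition with less porphyrin fluorescence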
Exocytosis inh = blocks lytic granule exocytosis; inhibition, % at 10 µM; 360,000 compounds, 0.66% hits; TALL-104 LAMP-1 surface exposure, flow cytometry; cells stimulated with thapsigargin and PMA; AID 651702;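 active = inhibition above about 55%, limit read from the data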
Yeast UUG start = yeast start codon fidelity modulation | S. cerevisiae UUG-firefly luciferase reporter, luminescence/redox ratio | activity score, % at 18.7 µM | 0.13% of 350,000 active | AID 602363;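 active means replicate mean at a twofold rise or more, about +100% in these data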;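 further: firefly luciferase made from a UUG start codon reports start codon fidelity; reporter light over untreated wells divided by growth signal over untreated wells; some hits fall short of that in this replicate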
* marks the source's active call; other numbers are inactive results. Shown are actives, neighbours in structure and some others; about 0.94% of the full set was active somewhere.

What do the screens show for `CO[C@H]1CN(C)C(=O)c2cc(NC(=O)C3CC3)ccc2OC[C@@H](C)N(Cc2cccnc2)C[C@@H]1C`?
Yeast UUG start: -13

How did Cc1ccc(Nc2nc(N)nc(CCl)n2)cc1 do in these assays?
p-CIP stab down: -8; ABCB6 inh 2: 98; Exocytosis inh: 51; Yeast UUG start: -21

Results for COc1ccc(OC)c(Nc2nc(N)nc(CCl)n2)c1 ?
p-CIP stab down: 4; PKA-R1A act: -6; PKA-R2B activ: -4; ABCB6 inh 2: 95; Exocytosis inh: 31; Yeast UUG start: -19

How did Nc1nc(CCl)nc(Nc2ccccc2)n1 do in these assays?
p-CIP stab down: -15; PKA-R1A act: -3; PKA-R2B activ: 0; ABCB6 inh 2: 98; Exocytosis inh: 3

How did Cc1cccc(Nc2nc(N)nc(CCl)n2)c1 do in these assays?
p-CIP stab down: -12; PKA-R1A act: -4; PKA-R2B activ: 1; ABCB6 inh 2: 101; Exocytosis inh: 70*; Yeast UUG start: -11

Results for CCOc1ccc(Nc2nc(N)nc(CCl)n2)cc1 ?
p-CIP stab down: -4; PKA-R1A act: 1; PKA-R2B activ: 3; ABCB6 inh 2: 103; Exocytosis inh: 60*; Yeast UUG start: -38

What do the screens show for `COc1cccc(Nc2nc(N)nc(CCl)n2)c1`?
p-CIP stab down: -6; PKA-R1A act: -3; PKA-R2B activ: -5; ABCB6 inh 2: 103; Exocytosis inh: 68*; Yeast UUG start: -30

Results for COC(=O)C[C@@H]1CC[C@H]2[C@H](COc3ccc(NS(=O)(=O)c4ccccc4F)cc3C(=O)N2C)O1 ?
Yeast UUG start: 0

What do the screens show for `CO[C@H]1CN(C)C(=O)c2ccc(NS(=O)(=O)c3ccccc3)cc2OC[C@H](C)N(C(=O)NC(C)C)C[C@H]1C`?
Yeast UUG start: 2

How did Cc1ccc(S(=O)(=O)N[C@@H]2C=C[C@@H](CC(=O)NCc3ccncn3)O[C@H]2CO)cc1 do in these assays?
Yeast UUG start: -7

What do the screens show for `COCC(=O)Nc1ccc2c(c1)[C@@H]1C[C@@H](CC(=O)N(C)C)O[C@@H](CO)[C@@H]1O2`?
Yeast UUG start: -12

Results for NC(=S)N=Nc1c(O)n(CCCl)c2ccccc12 ?
p-CIP stab down: 0; ABCB6 inh 2: 100; Exocytosis inh: 0

What do the screens show for `NC(=S)N=Nc1c(O)n(CCCl)c2ccc(Cl)cc12`?
p-CIP stab down: 1; PKA-R1A act: -12; PKA-R2B activ: 1; ABCB6 inh 2: 98; Exocytosis inh: 57*; Yeast UUG start: -19

Results for CO[C@H]1CN(C)C(=O)c2cc(NC(C)=O)ccc2OC[C@@H](C)N(Cc2ccc(F)cc2)C[C@@H]1C ?
Yeast UUG start: 4

Results for O=C(N/N=C/c1ccccn1)c1sc2ccccc2c1Cl ?
p-CIP stab down: 15; PKA-R1A act: -4; PKA-R2B activ: -2; ABCB6 inh 2: 101; Exocytosis inh: 60*; Yeast UUG start: -52

Results for C[C@@H]1CN([C@@H](C)CO)C(=O)c2cccc(NS(=O)(=O)c3ccc(Cl)cc3)c2O[C@@H]1CN(C)C(=O)NC1CCCCC1 ?
Yeast UUG start: 14

Results for COc1ccc(Cl)cc1N(CC(=O)NCCSc1ccccn1)S(=O)(=O)c1ccccc1 ?
p-CIP stab down: -9; PKA-R1A act: -6; PKA-R2B activ: 8; ABCB6 inh 2: 94; Exocytosis inh: 69*; Yeast UUG start: -4

What do the screens show for `COc1cccc(/C=N/NC(=O)c2[nH]nc3c2CCc2ccccc2-3)c1`?
p-CIP stab down: -9; ABCB6 inh 2: 103; Exocytosis inh: 81*; Yeast UUG start: -11

How did COc1ccc(C(=O)c2no[n+]([O-])c2C(=O)c2ccc(OC)cc2)cc1 do in these assays?
p-CIP stab down: 12; PKA-R1A act: -8; PKA-R2B activ: -8; ABCB6 inh 2: 85; Exocytosis inh: 103*

How did O=C(c1ccc(Cl)nc1)c1cccs1 do in these assays?
p-CIP stab down: 4

Next section (2 carried over from the part before).
How did COc1ccc(C(=O)c2no[n+]([O-])c2C(=O)c2ccc(OC)cc2)cc1 do in these assays?
p-CIP stab down: 12; PKA-R1A act: -8; PKA-R2B activ: -8; ABCB6 inh 2: 85; Exocytosis inh: 103*

How did O=C(c1ccc(Cl)nc1)c1cccs1 do in these assays?
p-CIP stab down: 4

What do the screens show for `O=C(c1cccs1)c1no[n+]([O-])c1C(=O)c1cccs1`?
p-CIP stab down: -12; PKA-R1A act: 5; PKA-R2B activ: 5; ABCB6 inh 2: 83; Exocytosis inh: 82*; Yeast UUG start: 15

Results for Oc1c(N=Nc2ccccn2)ccc2ccccc12 ?
p-CIP stab down: -5; PKA-R1A act: 2; PKA-R2B activ: -1; ABCB6 inh 2: 102; Exocytosis inh: 102*

What do the screens show for `Oc1[nH]c2ccccc2c1N=Nc1ccccn1`?
PKA-R1A act: -1; PKA-R2B activ: -2; ABCB6 inh 2: 89; Exocytosis inh: 0

Results for O=C1c2cccc3c([N+](=O)[O-])ccc(c23)C(=O)N1c1nccs1 ?
p-CIP stab down: -104; PKA-R1A act: -10; PKA-R2B activ: -5; ABCB6 inh 2: 187; Exocytosis inh: 85*; Yeast UUG start: -23

Results for O=C1c2cccc3c([N+](=O)[O-])ccc(c23)C(=O)N1c1ccccn1 ?
p-CIP stab down: -203; PKA-R1A act: -5; PKA-R2B activ: -8; ABCB6 inh 2: 226; Exocytosis inh: 29; Yeast UUG start: -16

What do the screens show for `COc1ccc(S(=O)(=O)Nc2ccc3c(c2)C(=O)N([C@H](C)CO)C[C@@H](C)[C@H](CN(C)Cc2ccc(Cl)c(Cl)c2)OCCCC[C@H](C)O3)cc1`?
Yeast UUG start: 4

What do the screens show for `COc1ccccc1NC1=C(NC(C)=O)C(=O)c2ccccc2C1=O`?
p-CIP stab down: -11; PKA-R1A act: -3; PKA-R2B activ: -5; ABCB6 inh 2: 102; Exocytosis inh: 90*

What do the screens show for `COC1=C(Nc2ccccc2OC)C(=O)c2ccccc2C1=O`?
p-CIP stab down: -12; ABCB6 inh 2: 93; Exocytosis inh: -1; Yeast UUG start: 4

How did C[C@H](CO)N1C[C@H](C)[C@@H](CN(C)C(=O)Cc2ccccn2)Oc2ncc(-c3cncnc3)cc2C1=O do in these assays?
Yeast UUG start: 6

How did CCOC(=O)C(C(=O)OCC)c1cc(Br)c2noc3c2c1C(=O)c1ccccc1-3 do in these assays?
p-CIP stab down: -217; PKA-R1A act: -3; PKA-R2B activ: 9; ABCB6 inh 2: inactive; Exocytosis inh: 98*

What do the screens show for `COc1ccccc1C#Cc1cnc2c(c1)C(=O)N([C@H](C)CO)C[C@H](C)[C@H](CN(C)C)O2`?
Yeast UUG start: -5

How did CCCCCSc1nncc(=O)[nH]1 do in these assays?
p-CIP stab down: -24; PKA-R1A act: -3; PKA-R2B activ: 5; ABCB6 inh 2: 108; Exocytosis inh: 0; Yeast UUG start: -21

Results for CCCCCCCCSC1=CC(=O)C(OC)=C(OC)C1=O ?
PKA-R1A act: -2; PKA-R2B activ: 4; ABCB6 inh 2: 93; Exocytosis inh: 114*; Yeast UUG start: -21

Two entries drawn at random from the list so far:
Results for Oc1c(N=Nc2ccccn2)ccc2ccccc12 ?
p-CIP stab down: -5; PKA-R1A act: 2; PKA-R2B activ: -1; ABCB6 inh 2: 102; Exocytosis inh: 102*

What do the screens show for `COC1=C(Nc2ccccc2OC)C(=O)c2ccccc2C1=O`?
p-CIP stab down: -12; ABCB6 inh 2: 93; Exocytosis inh: -1; Yeast UUG start: 4

Bioassay records (PubChem BioAssay)
